Results as given in patent publication US11279712B2, “Macrocyclic compounds that inhibit MCL-1 protein” (AMGEN INC., priority 2017, dated 2022).

Test system: OPM-2 human multiple myeloma cell line
Assay: Cell Viability Assay (OPM-2 10 FBS)
Settings: read-out: OPM-2 10% FBS IC50 IP, OPM-2 cells, 16 h, CellTiter-Glo
Experimental: Cell Viability Assay (OPM-2 10 FBS)
The human multiple myeloma cell line, OPM-2, was cultured in complete growth medium containing RPMI 1640 and 10% fetal bovine serum (FBS). Cells were seeded into 384-well plates at 3000 cells/well density in complete growth medium containing 10% FBS, and incubated for 16 h with serially diluted test compounds in a 37° C. incubator with 5% CO2. Cell viability was tested using CellTiter-Glo® assay (Promega, Madison, Wis.) according to the manufacturer recommendations. Luminescence was determined using an EnVision® Multilabel plate reader 25 min after the addition of detection reagent. IC50 values were then calculated with Xlfit using a logistical 4-parameter fit model in GraphPad Prism (GraphPad Software, San Diego, Calif.) or in Genedata Screener® (Genedata, Basel, Switzerland).

| SMILES | IC50 [µM] |
| --- | --- |
| C[C@H](O)[C@@H]1CCC[C@H](C)[C@@H](C)S(=O)(=O)NC(=O)c2ccc3c(c2)N(C[C@@H]2CC[C@H]21)C[C@@]1(CCCc2cc(Cl)ccc21)CO3 | 0.304 |
| COC[C@H]1CCC[C@H](C)[C@@H](C)S(=O)(=O)NC(=O)c2ccc3c(c2)N(C[C@@H]2CC[C@@H]12)C[C@@]1(CCCc2cc(Cl)ccc21)CO3 (single isomer, unassigned) [Example 80] | 0.984 |
